# Results from patent US6680054B1 (priority 1996, dated 2004).
# Protein sequences, listed by entry. Tags and fused reporters are not part of them.
# UniProt P27907, whole entry, looked up: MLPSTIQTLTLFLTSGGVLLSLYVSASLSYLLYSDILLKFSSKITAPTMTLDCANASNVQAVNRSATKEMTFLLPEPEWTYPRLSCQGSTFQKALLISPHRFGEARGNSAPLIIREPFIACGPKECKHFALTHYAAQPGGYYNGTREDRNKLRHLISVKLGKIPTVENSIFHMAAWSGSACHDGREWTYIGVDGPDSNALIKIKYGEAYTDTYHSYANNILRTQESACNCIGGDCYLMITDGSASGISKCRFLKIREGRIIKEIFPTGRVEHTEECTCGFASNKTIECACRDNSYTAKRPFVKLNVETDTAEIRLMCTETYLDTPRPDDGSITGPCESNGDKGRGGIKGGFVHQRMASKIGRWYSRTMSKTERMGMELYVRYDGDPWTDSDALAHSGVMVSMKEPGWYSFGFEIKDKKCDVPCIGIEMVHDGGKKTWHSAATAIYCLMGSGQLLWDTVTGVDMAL
# Target: whole virus influenza neuraminidase, B/Victoria/02/87 (Influenza B virus, UniProt P27907)
# Conditions: read-out: inhibition constants (IC50), B/Vic/02/87
substance,measurement,value
GG167-Bovine Serum Albumin-Biotin conjugate [Compound 3a],IC50,20 nM
